## Antibody variant affinities, Ab-91 heavy chain, assay 2

Reference: Engelhart et al. 2022, doi:10.1038/s41597-022-01779-4. File: FLAb, binding data.

Binding partner: SARS-CoV-2 spike HR2 peptide, sequence PDVDLGDISGINAS.

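The library (AAYL51) carries one to three amino acid substitutions per variant, with no insertions or deletions. The scFvs were displayed on barcoded MATa yeast, the peptide on MATalpha yeast. Binding brings cells together so that they mate, and sequencing counts the barcode pairs among the diploids. A regression on co-assayed BCL2-family reference pairs converts the normalised counts of each replicate to an apparent Kd. There are three technical replicates.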

Each scFv is VL, a 15-residue (Gly4Ser)3 linker, VH, as in the parent Ab-91, and differs from it in the CDRs of the heavy chain only.
VL: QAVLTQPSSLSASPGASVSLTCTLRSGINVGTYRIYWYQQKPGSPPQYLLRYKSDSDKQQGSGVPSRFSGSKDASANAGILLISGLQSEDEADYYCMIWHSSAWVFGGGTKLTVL
VH: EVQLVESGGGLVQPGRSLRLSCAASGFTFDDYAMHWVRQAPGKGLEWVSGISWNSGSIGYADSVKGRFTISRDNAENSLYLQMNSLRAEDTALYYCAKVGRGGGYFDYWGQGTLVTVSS

Changes read parent residue, position, new residue, counted from the first residue of the VH shown.
Every variant below is changed at Y108 of the VH (sequential numbering).
Each Kd is an estimate from the mating assay, the geometric mean of the replicates in which the pair was seen; lower is stronger.
A pair that was not seen in any replicate is written "nd"; this usually means weak binding, but a binder can also be missed.
Nonspecific signal, from three strains lacking the peptide, appeared in 21% of pairings of library AAYL51, centred on 34 µM (5% of these signals below 1.8 µM); values are not corrected for it. For each scFv, signals with the empty controls are counted beside the result.
In this assay the parent's reference entry averaged 72 nM; its copy inside this library read 7.5 nM.

* F29K+M34I+Y108M -> 9.1 µM (1 of 3 replicates; controls 1 of 9)
* A33F+Y105W+Y108I -> 73 µM (1 of 3 replicates; controls 1 of 9)
* I51C+G56T+Y108E -> 27 µM (2 of 3 replicates; controls 0 of 9)
* H35N+V64W+Y108M -> 6.5 µM (1 of 3 replicates; controls 0 of 9)
* S57F+K65Y+Y108N -> 30 µM (3 of 3 replicates; controls 4 of 9)
* G102W+Y108V -> 4.2 nM (3 of 3 replicates; controls 0 of 9)
* D107F+Y108A -> 260 nM (3 of 3 replicates; controls 3 of 9)
* G26I+S52A+Y108I -> 3.0 µM (2 of 3 replicates; controls 0 of 9)
* F27E+G102A+Y108F -> 380 µM (3 of 3 replicates; controls 6 of 9)
* N54Q+A61I+Y108E -> 48 µM (3 of 3 replicates; controls 3 of 9)
* T28E+F29W+Y108H -> 1.1 µM (3 of 3 replicates; controls 7 of 9)
* F27Q+Y108K -> 2.3 µM (3 of 3 replicates; controls 3 of 9)
* G26R+D107E+Y108W -> 13 nM (3 of 3 replicates; controls 1 of 9)
* D30V+R101Y+Y108G -> nd (0 of 3 replicates; controls 1 of 9)
* H35F+G104H+Y108N -> nd (0 of 3 replicates; controls 0 of 9)
* N54F+Y105L+Y108E -> 140 µM (3 of 3 replicates; controls 4 of 9)
* D30F+M34P+Y108D -> 77 µM (1 of 3 replicates; controls 2 of 9)
* F29S+Y108E -> nd (0 of 3 replicates; controls 0 of 9)
* S57T+R101S+Y108V -> 1.4 µM (3 of 3 replicates; controls 2 of 9)
* D62G+G100D+Y108S -> 66 µM (2 of 3 replicates; controls 3 of 9)
* N54P+Y108A -> nd (0 of 3 replicates; controls 0 of 9)
* T28L+G104L+Y108K -> 85 µM (1 of 3 replicates; controls 4 of 9)
* G50F+N54I+Y108M -> 76 µM (3 of 3 replicates; controls 7 of 9)
* N54K+K65A+Y108T -> 1.3 µM (3 of 3 replicates; controls 3 of 9)
* G26K+G104F+Y108F -> 200 µM (3 of 3 replicates; controls 6 of 9)
* G26T+R101L+Y108A -> 2.7 µM (3 of 3 replicates; controls 2 of 9)
* G26F+G50R+Y108K -> 390 µM (2 of 3 replicates; controls 5 of 9)
* G59E+V64I+Y108L -> 400 nM (3 of 3 replicates; controls 6 of 9)
* H35V+G104W+Y108E -> 3.1 µM (1 of 3 replicates; controls 1 of 9)
* I58V+A61F+Y108V -> 810 nM (3 of 3 replicates; controls 0 of 9)
* A61D+G103H+Y108C -> nd (0 of 3 replicates; controls 3 of 9)
* M34Y+G102C+Y108E -> 46 µM (2 of 3 replicates; controls 4 of 9)
* H35G+F106R+Y108T -> 540 nM (1 of 3 replicates; controls 0 of 9)
* F27W+H35Y+Y108D -> 25 µM (1 of 3 replicates; controls 1 of 9)
* G102S+Y108F -> nd (0 of 3 replicates; controls 3 of 9)

Again, the first 6 entries without any signal:

| changes | Kd | seen in | control signals |
|---|---|---|---|
| D30V+R101Y+Y108G | nd | 0/3 | 1/9 |
| H35F+G104H+Y108N | nd | 0/3 | 0/9 |
| F29S+Y108E | nd | 0/3 | 0/9 |
| N54P+Y108A | nd | 0/3 | 0/9 |
| A61D+G103H+Y108C | nd | 0/3 | 3/9 |
| G102S+Y108F | nd | 0/3 | 3/9 |